Reference: PMC5688156, “The natural product carolacton inhibits folate-dependent C1 metabolism by targeting FolD/MTHFD” (Nature Communications, 2017)

Target: E. coli ΔtolC FolD, reductively lysine-methylated (ecFolD^Meth) (E. coli) (UniProt P24186)
Assay: crystal structure; apo ecFolD^Meth crystals, sitting drop vapour diffusion at 18 °C, space group P2_(1), 1.9 Å; four monomers in the asymmetric unit

stoichiometry N: 2
Substance: E. coli ΔtolC FolD, reductively lysine-methylated (ecFolD^Meth) (from UniProt P24186 1-288) (enzyme)
